Reference: US20140348942A1, “Treatments for gastrointestinal disorders” (published 2014)

Biological target: Guanylate cyclase C (GC-C) on human T84 cells (human), P25092
Test: cell-based or functional assay

Binder: CCELCCNPACTGCY (modifications not checked) [Peptide 1]
- EC50, cGMP response in T84 cells, pH 5: 13.4 nM
- EC50, cGMP response in T84 cells, pH 8: 114 nM
- Ratio EC50 pH 8/EC50 pH 5: 8.5
